Activity data for one molecule are collected here from ChEMBL document CHEMBL3880438, “Identification of modulators of GPR41 or GPR42 activity” (2001).

Each structure is given as a SMILES string. The source made the active and inactive calls. The calls are words filed in the database; no cut-off is given here.

The target of this assay is T1, Free fatty acid receptor 3 (Rattus norvegicus) (UniProt B2GV46).
T1 sequence (whole entry): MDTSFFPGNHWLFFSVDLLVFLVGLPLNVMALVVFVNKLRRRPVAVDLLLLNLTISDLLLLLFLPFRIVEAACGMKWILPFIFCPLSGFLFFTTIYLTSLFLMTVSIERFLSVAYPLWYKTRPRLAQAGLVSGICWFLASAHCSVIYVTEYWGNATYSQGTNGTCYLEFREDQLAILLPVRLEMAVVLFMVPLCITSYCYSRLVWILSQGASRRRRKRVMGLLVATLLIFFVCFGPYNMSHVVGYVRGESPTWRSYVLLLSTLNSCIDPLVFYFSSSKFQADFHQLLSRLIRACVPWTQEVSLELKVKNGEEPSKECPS
Description: Agonist activity at rat GPR41 expressed in HEK293T cell membranes co-expressing Go1alpha protein assessed as stimulation of [35S]GTPgammaS binding at 0.1 microM to 0.1 M incubated for 30 mins by scintillation counting method. Format: functional. The conditions noted are these: HEK-293T.

In the case of `CCCC(=O)[O-].CCCCC(=O)[O-].[K+].[Na+]`, the result was Active.
